Reference: patent EP2423217A1, “Peptide and protein affinity tag from mistic protein” (Forschungsverbund Berlin E.V., priority 2010, dated 2012)

Test system: MB peptide
Assay type: physicochemical

Substance: MKVTSHHKEQLSTAIDRMNEGLHAFlQLYNHS [SEQ ID NO: 6]
- pH switch value: maintains a similar pH switch value
- switch properties (monomer below the switching pH value when reversed): reverses the switch properties
